From ChEMBL document CHEMBL5329208 (RSC Med Chem, 2023)

Assay: Metabolic stability in human liver microsome assessed as half life preincubated for 10 mins followed by NADPH addition and measured after 60 mins by LC-MS/MS analysis
Type: ADME
Details: liver microsomes, time 70 min

half-life: 5.9 min
Compound: O=C(O)Cc1ccccc1Nc1c(Cl)cccc1Cl [DICLOFENAC]
